In PubChem BioAssay AID1224862 (National Center for Advancing Translational Sciences (NCATS), 2016):
The entries are a selection whose mix differs from that of the whole data set. Inconclusive results are not listed. Activity calls are given as the source filed them. Calls come from the whole dose curve; as a rule, active = well fitted cell-killing curve with a large enough effect; inconclusive = small, poorly fitted or top-dose-only effect, or effect the other way; inactive = flat fitted curve, though single readings scatter.

Assay: Compound cytotoxicity measured by an ATP content assay as a counter-screen for lead compounds in human astrocytoma cell line (SNB-19)
Details: SNB-19 astrocytoma viability, ATP luminescence; at 46.1 µM (top of the series)
Experimental: National Center for Advancing Translational Sciences [NCATS] Johns Hopkins University School of Medicine Florida State University Assay Overview: Many compounds can cause cytotoxicity at high compound concentrations. […] The compound cytotoxicity may also cause side effects or toxicity in human. Thus, the compound cytotoxicity needs to be measured in each cell type and each compound incubation time - same as these in the compound screening assay. The compound cytotoxicity can be measured by cell viability assays such as the ATP content assay. We use an ATP content assay kit for cell viability measurement. It measures ATP content (level) in human astrocytoma cell line (SNB-19) using a luminescence readout that is proportional to viable cell numbers. Decrease in the luminescence signal after the compound treatment indicates reduced cell viability and cell death caused by compound treatment.
Assay Protocol Summary: The medium for SNB-19 cells is composed of RPMI 1640 (ATCC, Cat.# 30-2001), 10% fetal bovine serum (FBS) (GE healthcare Life Sciences, Cat.# SH30071.03), and 1% Pen/Strep (Gibco, Cat.# 15140-122). […] After incubation at room temperature for 10 minutes, the luminescence intensity in assay plates was measured using a ViewLux plate reader (PerkinElmer). […] The percentage inhibitions of the decreased cell viability by small molecules were then calculated that indicate compound cytotoxicity.

| Structure (SMILES) | activity change, negative = cytotoxicity |
| --- | --- |
| CCOP(=O)(CC)Oc1ccc([N+](=O)[O-])cc1 (configuration not stated) | inactive: 20.3% |
| C/C1=C2N=C(/C=C3N=C(/C(C)=C4\[N-][C@@](C)([C@@H]5N=C1[C@](C)(CCC(=O)NC[C@@H](C)OP(=O)([O-])O[C@H]1[C@@H](O)[C@@H](n6cnc7cc(C)c(C)cc76)O[C@@H]1CO)[C@H]5CC(N)=O)[C@@](C)(CC(N)=O)[C@@H]4CCC(N)=O)[C@@](C)(CC(N)=O)[C@@H]\3CCC(N)=O)C(C)(C)[C@@H]/2CCC(N)=O.[C-]#N.[Co+3] | inactive: -8.44% |
